# Ab-95 light chain CDR variants: yeast mating affinities

Source: Engelhart et al. 2022 (doi:10.1038/s41597-022-01779-4), MIT Lincoln Laboratory and A-Alpha Bio; data file from the FLAb repository.

Target: peptide PDVDLGDISGINAS, taken from heptad repeat 2 (HR2) of SARS-CoV-2 spike.

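The starting antibody came from a phage panning campaign against this peptide. In library AAYL52, one, two or three CDR residues were substituted; doubles and triples were drawn at random. The assay is AlphaSeq: two haploid yeast populations carry antibody and antigen on their surface. The frequency of each diploid, read from paired DNA barcodes, reflects how well the two displayed proteins bind. Scores were corrected for input abundance and mapped to Kd with protein pairs of known affinity run in the same pool. Each pool was mated in three replicate cultures.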

The variants keep the heavy chain, the linker and the frameworks of Ab-95 (scFv order VH, a 15-residue (Gly4Ser)3 linker, VL).
VH: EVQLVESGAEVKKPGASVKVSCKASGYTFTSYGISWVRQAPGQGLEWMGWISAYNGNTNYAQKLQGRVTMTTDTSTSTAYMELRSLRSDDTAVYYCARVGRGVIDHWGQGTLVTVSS
VL: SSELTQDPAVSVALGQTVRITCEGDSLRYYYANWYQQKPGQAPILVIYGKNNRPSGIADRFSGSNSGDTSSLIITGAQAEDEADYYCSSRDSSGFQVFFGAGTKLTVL

Variants are written as CDR1, CDR2 and CDR3 of the light chain (limits as in the source). Parent: EGDSLRYYYAN, GKNNRPS, SSRDSSGFQVF. This list gathers variants with a substitution at R53 (VL, numbered from residue 1). Values are log10 of the apparent Kd in nM; lower means stronger binding. A mean of the replicates is given; it leaves out those without a signal. "nd" marks a missing value. The strain was present, yet no cells mated with the target were sequenced in any replicate, which points to weak or no binding. For reference, the parent read 2.31 as the reference entry and 2.25 as a member of this library.

Variant CADSLRYYYAN, GKNNHPS, SSRDSSGFQVF showed 4.01 (2 of 3 replicates; controls 2 of 9).
Variant EGDSLRYYYAN, GKNNKPS, STVDSSGFQVF showed 2.69 (3 of 3 replicates; controls 2 of 9).
Variant EGGSLRYYYAN, GLNNGPS, SSRDSSGFQVF showed 3.78 (2 of 3 replicates; controls 5 of 9).
Variant EGDSLRYYYAN, GKNNPPS, SSRDSQGFQVF showed nd (0 of 3 replicates; controls 6 of 9).
Variant EGDSLRYYYSN, GKNNNPS, SSRYSSGFQVF showed 4.79 (2 of 3 replicates; controls 2 of 9).
Variant DGDSLRYYYAV, GKNNHPS, SSRDSSGFQVF showed 3.19 (2 of 3 replicates; controls 1 of 9).
Variant EGDSLRYYYAN, GKNNCPS, SSTDSQGFQVF showed nd (0 of 3 replicates; controls 0 of 9).
Variant EGDMLRYYYAN, CKNNEPS, SSRDSSGFQVF showed 3.82 (2 of 3 replicates; controls 5 of 9).
Variant EGDSLRYYYAN, GKNNYPS, PSRDSSGFRVF showed 4.52 (2 of 3 replicates; controls 3 of 9).
Variant YGDSLRYYRAN, GKNNNPS, SSRDSSGFQVF showed 2.72 (3 of 3 replicates; controls 2 of 9).
Variant EGDSLRYKYAN, GKNNIPS, SSRDSSGPQVF showed 4.08 (3 of 3 replicates; controls 3 of 9).
Variant EGDSLRYYYAN, GKNNSAS, SSRDSSGFGVF showed 2.78 (3 of 3 replicates; controls 5 of 9).
Variant EGDSLRYYYAN, GKNNYPY, SSRDSSGFQFF showed nd (0 of 3 replicates; controls 4 of 9).
Variant YGDSLRYYYPN, GKNNAPS, SSRDSSGFQVF showed 2.55 (3 of 3 replicates; controls 2 of 9).
Variant EGDSLRYYYDN, GKNNMPS, SSRDSSGFQVF showed nd (0 of 3 replicates; controls 2 of 9).
Variant EGDSLRYYYAN, GKNNVIS, SSRDSSGFQYF showed 3.62 (3 of 3 replicates; controls 2 of 9).
Variant EGDYLSYYYAN, GKNNSPS, SSRDSSGFQVF showed 3.15 (3 of 3 replicates; controls 1 of 9).
Variant EGDSLRYYYAN, GNNNDPS, SSRDISGFQVF showed 4.42 (1 of 3 replicates; controls 3 of 9).
Variant EGDSLRYYYAN, GKNNPPS, SWRDSSGFQVF showed nd (0 of 3 replicates; controls 3 of 9).
Variant EGDHLRYYYAN, GKNNTPS, SSRDSSGFQVF showed 3.47 (3 of 3 replicates; controls 1 of 9).
Variant DGDSLRYYYAN, GKNNTPS, SSRDSSGFQVF showed 2.33 (3 of 3 replicates; controls 2 of 9).
Variant EGDSLRGYYAN, GKNNFPH, SSRDSSGFQVF showed 5.92 (1 of 3 replicates; controls 4 of 9).
Variant EGDSLRYYDAN, GTNNPPS, SSRDSSGFQVF showed 4.22 (3 of 3 replicates; controls 2 of 9).
Variant EGDSLRYYYAN, GKNNGPS, SSFDSSGFQHF showed nd (0 of 3 replicates; controls 1 of 9).
Variant EGPSLRYYYAN, GKNNNPS, SSRDSSGFQVF showed 3.68 (3 of 3 replicates; controls 2 of 9).
Variant EGDSLRYYYAN, GLNNAPS, SSRDSSGFQVF showed 3.80 (3 of 3 replicates; controls 3 of 9).
Variant EGDSLRYYYAN, GKNNQPW, SSHDSSGFQVF showed 5.62 (1 of 3 replicates; controls 3 of 9).
Variant EGDSLRYYQAN, GKNNTPS, SSRDSTGFQVF showed 1.87 (3 of 3 replicates; controls 5 of 9).
Variant EGDSLRYYYAN, GKNNWPS, SSRLSSGFQAF showed 3.84 (2 of 3 replicates; controls 2 of 9).
Variant EGDSLRYYYAN, GKNNPPS, CSHDSSGFQVF showed nd (0 of 3 replicates; controls 3 of 9).
Variant EGDSLRIYAAN, GKNNPPS, SSRDSSGFQVF showed 3.32 (1 of 3 replicates; controls 4 of 9).
Variant EGDSLRYYYAR, GKNNMPS, SSRDSYGFQVF showed 4.91 (2 of 3 replicates; controls 3 of 9).
Variant EGASLRYYYAN, GKNNQPS, SSRDSSIFQVF showed 4.01 (2 of 3 replicates; controls 3 of 9).
Variant EGDSLRYYYAN, IKNYLPS, SSRDSSGFQVF showed 3.86 (1 of 3 replicates; controls 2 of 9).
Variant EGDSLRYQEAN, GKNNFPS, SSRDSSGFQVF showed 1.61 (3 of 3 replicates; controls 3 of 9).
Variant EGDSLRYYYAN, DKNNDPS, SSRDSSFFQVF showed nd (0 of 3 replicates; controls 2 of 9).
Variant EGWSLRYYYAN, GKNNMPS, SSRDSYGFQVF showed nd (0 of 3 replicates; controls 1 of 9).
Variant EGDSLHYYYAN, GKNNWPS, SSEDSSGFQVF showed 3.70 (1 of 3 replicates; controls 1 of 9).
Variant EGDSLRNYYAC, GKNNTPS, SSRDSSGFQVF showed 3.45 (3 of 3 replicates; controls 3 of 9).
Variant EGDSYRYYYAN, GNNNKPS, SSRDSSGFQVF showed 3.45 (1 of 3 replicates; controls 4 of 9).
Variant EGDSLRYYYAN, GKNNEPK, PSRDSSGFQVF showed nd (0 of 3 replicates; controls 2 of 9).
Variant EGPSLRYYYAN, GKNNYPS, SSRDWSGFQVF showed 3.95 (3 of 3 replicates; controls 4 of 9).
Variant EGHSLRYYYAN, GKVNWPS, SSRDSSGFQVF showed 4.40 (1 of 3 replicates; controls 1 of 9).

The opening 3 entries, copied out:

CDR-L1	CDR-L2	CDR-L3	log10 Kd (nM), mean	replicates with signal	signal with controls
CADSLRYYYAN	GKNNHPS	SSRDSSGFQVF	4.01	2/3	2/9
EGDSLRYYYAN	GKNNKPS	STVDSSGFQVF	2.69	3/3	2/9
EGGSLRYYYAN	GLNNGPS	SSRDSSGFQVF	3.78	2/3	5/9

Empty control strains, which show no peptide, gave a signal in 28% of pairings with library AAYL52; the median was 3.91 and 95% of these signals were weaker than 2.90. No background was subtracted. Also given: how often the same scFv was detected with the empty control strains.